Results published in article PMC4910395 (Bioorganic & medicinal chemistry, 2015).

By UniProt entry, the sequences of proteins in these tests, tags left out. Residues count along the entry.
UniProt Q00959, 23-1464: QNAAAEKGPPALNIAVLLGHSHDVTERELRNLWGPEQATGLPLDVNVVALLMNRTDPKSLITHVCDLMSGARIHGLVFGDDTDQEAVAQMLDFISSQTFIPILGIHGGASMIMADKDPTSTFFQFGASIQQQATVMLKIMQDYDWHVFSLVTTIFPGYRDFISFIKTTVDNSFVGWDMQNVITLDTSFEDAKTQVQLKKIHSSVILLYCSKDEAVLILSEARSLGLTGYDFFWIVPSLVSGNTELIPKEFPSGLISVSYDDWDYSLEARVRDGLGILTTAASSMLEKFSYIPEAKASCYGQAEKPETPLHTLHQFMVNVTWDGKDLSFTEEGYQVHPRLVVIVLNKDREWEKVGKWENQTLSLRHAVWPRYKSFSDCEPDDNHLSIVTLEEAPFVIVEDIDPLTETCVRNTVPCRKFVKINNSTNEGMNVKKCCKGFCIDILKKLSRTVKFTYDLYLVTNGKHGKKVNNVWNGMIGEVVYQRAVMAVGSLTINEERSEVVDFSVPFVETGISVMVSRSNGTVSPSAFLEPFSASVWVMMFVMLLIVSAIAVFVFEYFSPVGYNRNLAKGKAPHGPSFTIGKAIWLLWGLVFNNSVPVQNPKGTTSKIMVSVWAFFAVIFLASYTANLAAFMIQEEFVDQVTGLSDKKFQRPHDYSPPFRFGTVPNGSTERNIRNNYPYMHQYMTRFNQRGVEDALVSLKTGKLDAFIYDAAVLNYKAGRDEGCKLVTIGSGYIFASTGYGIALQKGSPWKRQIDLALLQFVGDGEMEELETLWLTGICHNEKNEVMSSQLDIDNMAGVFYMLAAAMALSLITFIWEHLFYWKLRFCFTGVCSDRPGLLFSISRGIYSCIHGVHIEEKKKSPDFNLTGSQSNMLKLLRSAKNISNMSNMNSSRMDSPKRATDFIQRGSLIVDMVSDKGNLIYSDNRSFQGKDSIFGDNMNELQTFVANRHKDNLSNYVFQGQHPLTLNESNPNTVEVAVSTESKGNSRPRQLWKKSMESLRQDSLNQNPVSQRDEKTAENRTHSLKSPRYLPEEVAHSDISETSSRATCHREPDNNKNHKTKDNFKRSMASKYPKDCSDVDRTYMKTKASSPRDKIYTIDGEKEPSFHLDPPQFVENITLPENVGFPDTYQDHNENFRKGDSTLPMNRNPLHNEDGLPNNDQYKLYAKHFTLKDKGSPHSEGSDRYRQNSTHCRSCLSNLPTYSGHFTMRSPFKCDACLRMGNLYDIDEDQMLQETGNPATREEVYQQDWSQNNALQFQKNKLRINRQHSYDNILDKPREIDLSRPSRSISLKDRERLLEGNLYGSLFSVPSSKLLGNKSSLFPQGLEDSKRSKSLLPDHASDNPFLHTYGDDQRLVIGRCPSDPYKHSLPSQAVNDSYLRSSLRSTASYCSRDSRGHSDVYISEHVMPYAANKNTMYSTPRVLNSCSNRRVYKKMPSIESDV
UniProt Q00960, 27-1482: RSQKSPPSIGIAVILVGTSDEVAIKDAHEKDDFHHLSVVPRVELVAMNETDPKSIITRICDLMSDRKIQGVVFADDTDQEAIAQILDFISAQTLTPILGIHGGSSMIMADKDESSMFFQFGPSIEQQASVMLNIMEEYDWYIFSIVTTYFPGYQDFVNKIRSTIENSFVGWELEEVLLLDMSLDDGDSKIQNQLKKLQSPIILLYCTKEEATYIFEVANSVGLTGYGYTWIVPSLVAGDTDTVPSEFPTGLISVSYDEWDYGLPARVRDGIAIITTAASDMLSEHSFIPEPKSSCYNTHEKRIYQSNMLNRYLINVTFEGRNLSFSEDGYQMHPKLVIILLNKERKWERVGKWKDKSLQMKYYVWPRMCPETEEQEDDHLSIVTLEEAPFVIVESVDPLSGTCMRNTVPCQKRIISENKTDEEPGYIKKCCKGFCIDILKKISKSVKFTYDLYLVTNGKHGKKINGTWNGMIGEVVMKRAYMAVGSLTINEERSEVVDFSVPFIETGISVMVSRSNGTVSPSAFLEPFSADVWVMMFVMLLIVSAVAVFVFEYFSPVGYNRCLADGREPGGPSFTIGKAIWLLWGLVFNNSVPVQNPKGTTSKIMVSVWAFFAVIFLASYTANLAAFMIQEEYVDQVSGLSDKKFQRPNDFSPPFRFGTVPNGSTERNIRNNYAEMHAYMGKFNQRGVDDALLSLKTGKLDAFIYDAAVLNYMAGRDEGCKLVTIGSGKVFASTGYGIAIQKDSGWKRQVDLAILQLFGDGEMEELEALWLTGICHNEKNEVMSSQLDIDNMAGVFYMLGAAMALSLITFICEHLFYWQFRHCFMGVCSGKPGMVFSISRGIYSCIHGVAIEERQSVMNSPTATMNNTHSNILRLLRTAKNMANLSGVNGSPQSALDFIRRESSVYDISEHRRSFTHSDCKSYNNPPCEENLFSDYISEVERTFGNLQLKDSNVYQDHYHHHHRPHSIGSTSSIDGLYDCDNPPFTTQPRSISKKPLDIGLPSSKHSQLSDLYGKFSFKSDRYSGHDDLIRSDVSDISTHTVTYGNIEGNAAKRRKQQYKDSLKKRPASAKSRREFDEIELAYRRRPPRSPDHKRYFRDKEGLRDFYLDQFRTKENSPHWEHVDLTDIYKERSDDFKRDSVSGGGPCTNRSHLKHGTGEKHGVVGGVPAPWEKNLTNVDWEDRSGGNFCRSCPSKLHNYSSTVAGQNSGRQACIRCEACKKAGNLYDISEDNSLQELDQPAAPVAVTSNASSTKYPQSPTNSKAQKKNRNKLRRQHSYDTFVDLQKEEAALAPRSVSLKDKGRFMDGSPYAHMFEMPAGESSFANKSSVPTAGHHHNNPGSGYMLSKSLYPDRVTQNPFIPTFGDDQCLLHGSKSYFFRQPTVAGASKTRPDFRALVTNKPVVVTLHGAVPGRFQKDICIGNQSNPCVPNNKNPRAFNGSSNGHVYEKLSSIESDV

Biological target: NMDA receptor (NR), channel binding site labeled with [^3H]MK-801 (Rattus norvegicus, UniProt P35439+Q00959+Q00960)
Experiment: Inhibition of [^3H]MK-801 binding to rat cortical membranes
Conditions: mean ratio; spermine sensitivity

N,N-Bis[2-(1-amidino-3-methoxyphenoxy)ethyl]-4-methylbenzenesulfonamide dihydrochloride [compound 15]
[^3H]MK-801 Ratio IC50 (30 µM spm)/IC50 (no spm): 8.11 ± 2.91 (3)
